Experimental data as given in ChEMBL document CHEMBL1124304 (J Med Chem, 1988).

Amino acid sequences for entries named in this document (tags omitted).
UniProt P25099, whole entry: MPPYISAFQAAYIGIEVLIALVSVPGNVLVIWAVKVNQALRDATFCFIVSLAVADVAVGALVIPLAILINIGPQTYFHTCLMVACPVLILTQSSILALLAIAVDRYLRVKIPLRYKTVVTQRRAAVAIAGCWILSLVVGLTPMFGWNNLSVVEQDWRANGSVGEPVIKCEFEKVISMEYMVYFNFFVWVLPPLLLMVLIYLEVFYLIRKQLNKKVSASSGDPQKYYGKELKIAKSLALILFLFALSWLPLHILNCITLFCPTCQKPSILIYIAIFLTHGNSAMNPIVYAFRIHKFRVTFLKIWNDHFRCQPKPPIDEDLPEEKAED

Molecular target: Adenosine receptor A1 (Rattus norvegicus, UniProt P25099)

Ki: 5.1 nM
Structure (SMILES): OC[C@H]1O[C@@H](n2cnc3c(NCC4c5ccccc5-c5ccccc54)ncnc32)[C@H](O)[C@@H]1O
